# Measured values taken from PubChem BioAssay (NCI).
#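 Compound exposure: 48 hours, 5 concentrations, 96-well plates. GI50 marks 50% less growth. TGI marks complete inhibition of growth.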
# Tests used:
# Assay in all cases: inhibition of tumour cell growth, NCI panel, 48 h
# [1] = system: SK-MEL-5 melanoma
# [2] = system: HCT-15 colon
# [3] = system: SF-295 CNS
# [4] = system: OVCAR-5 ovarian
# [5] = system: DMS 114 small cell lung
# [6] = system: EKVX NSCLC
# [7] = system: 786-0 renal
# [8] = system: MOLT-4 leukemia
# [9] = system: SNB-75 CNS
# [10] = system: A498 renal
# [11] = system: SN12C renal
# [12] = system: CAKI-1 renal
# [13] = system: KM20L2 colon
# [14] = system: HCT-116 colon
# [15] = system: CCRF-CEM leukemia
# [16] = system: SF-539 CNS
# [17] = system: MALME-3M melanoma
# [18] = system: K-562 leukemia
# [19] = system: HOP-92 NSCLC
# [20] = system: SNB-78 CNS
# [21] = system: ACHN renal
# [22] = system: OVCAR-3 ovarian
# [23] = system: RXF 393 renal
# [24] = system: HCC-2998 colon
# [25] = system: UACC-62 melanoma
# [26] = system: A549 NSCLC
# [27] = system: HL-60(TB) leukemia
# [28] = system: COLO 205 colon
# [29] = system: NCI-H23 lung
# [30] = system: KM12 colon
# [31] = system: HOP-62 NSCLC
# [32] = system: M14 melanoma
# [33] = system: SK-MEL-2 melanoma
# [34] = system: OVCAR-4 ovarian
# [35] = system: NCI-H322M lung
# [36] = system: HT29 colon
# [37] = system: IGROV1 ovarian
# [38] = system: NCI-H460 lung
# [39] = system: UACC-257 melanoma
# [40] = system: TK-10 renal
# [41] = system: HOP-18 NSCLC
# [42] = system: XF 498 CNS
# [43] = system: SK-MEL-28 melanoma
# [44] = system: SNB-19 CNS
# [45] = system: LXFL 529 NSCLC
# [46] = system: OVCAR-8 ovarian
# [47] = system: RPMI-8226 leukemia
# [48] = system: U251 CNS
# [49] = system: SW-620 colon
# [50] = system: DMS 273 small cell lung
# [51] = system: M19-MEL melanoma
# [52] = system: DLD-1 colon
# [53] = system: SF-268 CNS
# [54] = system: SK-OV-3 ovarian
# [55] = system: MDA-N
# [56] = system: LOX IMVI melanoma
# [57] = system: SR leukemia
# [58] = system: MDA-MB-435
# [59] = system: NCI-H226 lung
# [60] = system: NCI/ADR-RES ovarian
# [61] = system: NCI-H522 lung
# [62] = system: HS 578T breast
# [63] = system: T-47D breast
# [64] = system: MDA-MB-231 breast
# [65] = system: DU-145 prostate
# [66] = system: UO-31 renal
# [67] = system: PC-3 prostate
# [68] = system: MCF7 breast
structure (smiles),measurement,setting,value
O=[N+]([O-])C12C3C4C1C1CC4C4([N+](=O)[O-])C3CC2C14[N+](=O)[O-] (configuration not stated),GI50,[1],> 100 µM
same,TGI,[1],> 100 µM
same,GI50,[2],> 100 µM
same,TGI,[2],> 100 µM
same,GI50,[3],> 100 µM
same,TGI,[3],> 100 µM
same,GI50,[4],> 100 µM
same,TGI,[4],> 100 µM
same,GI50,[5],> 100 µM
same,TGI,[5],> 100 µM
same,GI50,[6],> 100 µM
same,TGI,[6],> 100 µM
same,GI50,[7],> 100 µM
same,TGI,[7],> 100 µM
same,GI50,[8],> 100 µM
same,TGI,[8],> 100 µM
same,GI50,[9],> 100 µM
same,TGI,[9],> 100 µM
same,GI50,[10],> 100 µM
same,TGI,[10],> 100 µM
same,GI50,[11],> 100 µM
same,TGI,[11],> 100 µM
same,GI50,[12],> 100 µM
same,TGI,[12],> 100 µM
same,GI50,[13],> 100 µM
same,TGI,[13],> 100 µM
same,GI50,[14],> 100 µM
same,TGI,[14],> 100 µM
same,GI50,[15],> 100 µM
same,TGI,[15],> 100 µM
same,GI50,[16],> 100 µM
same,TGI,[16],> 100 µM
same,GI50,[17],> 100 µM
same,TGI,[17],> 100 µM
same,GI50,[18],> 100 µM
same,TGI,[18],> 100 µM
same,GI50,[19],> 100 µM
same,TGI,[19],> 100 µM
same,GI50,[20],> 100 µM
same,TGI,[20],> 100 µM
same,GI50,[21],> 100 µM
same,TGI,[21],> 100 µM
same,GI50,[22],> 100 µM
same,TGI,[22],> 100 µM
same,GI50,[23],> 100 µM
same,TGI,[23],> 100 µM
same,GI50,[24],> 100 µM
same,TGI,[24],> 100 µM
same,GI50,[25],> 100 µM
same,TGI,[25],> 100 µM
same,GI50,[26],> 100 µM
same,TGI,[26],> 100 µM
same,GI50,[27],> 100 µM
same,TGI,[27],> 100 µM
same,GI50,[28],> 100 µM
same,TGI,[28],> 100 µM
same,GI50,[29],> 100 µM
same,TGI,[29],> 100 µM
same,GI50,[30],> 100 µM
same,TGI,[30],> 100 µM
same,GI50,[31],> 100 µM
same,TGI,[31],> 100 µM
same,GI50,[32],> 100 µM
same,TGI,[32],> 100 µM
same,GI50,[33],> 100 µM
same,TGI,[33],> 100 µM
same,GI50,[34],> 100 µM
same,TGI,[34],> 100 µM
same,GI50,[35],> 100 µM
same,TGI,[35],> 100 µM
same,GI50,[36],> 100 µM
same,TGI,[36],> 100 µM
same,GI50,[37],> 100 µM
same,TGI,[37],> 100 µM
same,GI50,[38],> 100 µM
same,TGI,[38],> 100 µM
same,GI50,[39],> 100 µM
same,TGI,[39],> 100 µM
same,GI50,[40],> 100 µM
same,TGI,[40],> 100 µM
same,GI50,[41],> 100 µM
same,TGI,[41],> 100 µM
same,GI50,[42],> 100 µM
same,TGI,[42],> 100 µM
same,GI50,[43],> 100 µM
same,TGI,[43],> 100 µM
same,GI50,[44],> 100 µM
same,TGI,[44],> 100 µM
same,GI50,[45],> 100 µM
same,TGI,[45],> 100 µM
same,GI50,[46],> 100 µM
same,TGI,[46],> 100 µM
same,GI50,[47],> 100 µM
same,TGI,[47],> 100 µM
same,GI50,[48],> 100 µM
same,TGI,[48],> 100 µM
same,GI50,[49],> 100 µM
same,TGI,[49],> 100 µM
same,GI50,[50],> 100 µM
same,TGI,[50],> 100 µM
same,GI50,[51],> 100 µM
same,TGI,[51],> 100 µM
same,GI50,[52],> 100 µM
same,TGI,[52],> 100 µM
same,GI50,[53],> 100 µM
same,TGI,[53],> 100 µM
same,GI50,[54],> 100 µM
same,TGI,[54],> 100 µM
COc1ccc2c3c1OC1[C@@]4(OC)CCC5(CC4C(C)=O)[C@@H](C2)N(C)CC[C@]315 (some centres not stated),TGI,[1],> 100 µM
same,TGI,[2],> 100 µM
same,TGI,[55],> 100 µM
same,TGI,[3],> 100 µM
same,TGI,[4],> 100 µM
same,TGI,[6],> 100 µM
same,TGI,[56],> 100 µM
same,TGI,[57],> 100 µM
same,TGI,[7],> 100 µM
same,TGI,[8],> 100 µM
same,TGI,[9],> 100 µM
same,TGI,[10],> 100 µM
same,TGI,[11],> 100 µM
same,TGI,[12],> 100 µM
same,TGI,[14],> 100 µM
same,TGI,[15],> 100 µM
same,TGI,[16],> 100 µM
same,TGI,[58],> 100 µM
same,TGI,[59],> 100 µM
same,TGI,[17],> 100 µM
same,TGI,[60],> 100 µM
same,TGI,[18],> 100 µM
same,TGI,[19],> 100 µM
same,TGI,[21],> 100 µM
same,TGI,[61],> 100 µM
same,TGI,[62],> 100 µM
same,TGI,[22],> 100 µM
same,TGI,[23],> 100 µM
same,TGI,[24],> 100 µM
same,TGI,[25],> 100 µM
same,TGI,[26],> 100 µM
same,TGI,[63],> 100 µM
same,TGI,[27],> 100 µM
same,TGI,[28],> 100 µM
same,TGI,[29],> 100 µM
same,TGI,[30],> 100 µM
same,TGI,[64],> 100 µM
same,TGI,[65],> 100 µM
same,TGI,[31],> 100 µM
same,TGI,[32],> 100 µM
same,TGI,[33],> 100 µM
same,TGI,[34],> 100 µM
same,TGI,[35],> 100 µM
same,TGI,[66],> 100 µM
same,TGI,[36],> 100 µM
same,TGI,[37],> 100 µM
same,TGI,[38],> 100 µM
same,TGI,[39],> 100 µM
same,TGI,[40],> 100 µM
same,TGI,[43],> 100 µM
same,TGI,[44],> 100 µM
same,TGI,[46],> 100 µM
same,TGI,[67],> 100 µM
same,TGI,[47],> 100 µM
same,TGI,[48],> 100 µM
same,TGI,[49],> 100 µM
same,TGI,[68],> 100 µM
same,TGI,[53],> 100 µM
same,TGI,[54],> 100 µM
